Reference: ChEMBL document CHEMBL1141069, “Impact of induced fit on ligand binding to the androgen receptor: a multidimensional QSAR study to predict endocrine-disrupting effects of environmental chemicals” (J Med Chem, 2005)
pIC50: −log10 of the molar value.

Biological target: T1, Androgen receptor (Rattus norvegicus, UniProt P15207)
T1 sequence (P15207 whole entry): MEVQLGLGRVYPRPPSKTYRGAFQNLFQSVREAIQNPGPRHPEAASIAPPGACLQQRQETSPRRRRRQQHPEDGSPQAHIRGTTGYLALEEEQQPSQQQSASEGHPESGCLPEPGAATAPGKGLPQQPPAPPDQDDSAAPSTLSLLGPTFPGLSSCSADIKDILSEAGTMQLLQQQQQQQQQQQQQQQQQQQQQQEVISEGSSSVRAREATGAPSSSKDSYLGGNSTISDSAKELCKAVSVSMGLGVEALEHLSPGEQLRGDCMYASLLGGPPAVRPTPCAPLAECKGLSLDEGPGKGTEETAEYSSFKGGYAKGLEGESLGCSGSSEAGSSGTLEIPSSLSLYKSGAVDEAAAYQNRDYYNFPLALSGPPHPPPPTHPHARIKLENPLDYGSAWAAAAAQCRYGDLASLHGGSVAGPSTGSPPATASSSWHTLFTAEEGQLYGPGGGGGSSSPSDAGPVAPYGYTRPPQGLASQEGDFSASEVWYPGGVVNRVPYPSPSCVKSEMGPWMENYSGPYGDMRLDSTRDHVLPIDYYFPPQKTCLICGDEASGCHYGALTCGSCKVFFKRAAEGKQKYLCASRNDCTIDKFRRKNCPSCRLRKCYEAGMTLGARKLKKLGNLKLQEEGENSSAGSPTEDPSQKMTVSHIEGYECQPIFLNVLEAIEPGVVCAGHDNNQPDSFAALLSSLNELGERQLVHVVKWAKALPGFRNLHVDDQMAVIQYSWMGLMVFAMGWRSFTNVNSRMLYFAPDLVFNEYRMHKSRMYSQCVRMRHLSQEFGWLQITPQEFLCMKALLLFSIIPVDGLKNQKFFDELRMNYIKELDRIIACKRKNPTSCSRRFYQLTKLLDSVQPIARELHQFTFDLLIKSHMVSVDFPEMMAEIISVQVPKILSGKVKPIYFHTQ

SMILES	pIC50
CCC(=O)O[C@H]1CC[C@H]2[C@@H]3CCC4=CC(=O)CC[C@]4(C)[C@H]3CC[C@]12C [TESTOSTERONE PROPIONATE]	5.72
O=C1C2(Cl)C3(Cl)C4(Cl)C(Cl)(Cl)C5(Cl)C3(Cl)C1(Cl)C5(Cl)C24Cl (configuration not stated) [KEPONE]	4.92
